# Measured affinities in a library of Ab-95 light chain variants

Binding partner: SARS-CoV-2 spike HR2 peptide, sequence PDVDLGDISGINAS.

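The parent was found by panning a naive human phage display library on the peptide. Library AAYL52 holds single substitutions and randomly drawn double and triple substitutions in the CDRs. The assay is AlphaSeq: two haploid yeast populations carry antibody and antigen on their surface. Mating (16 h, 30 °C) was followed by selection of diploids and sequencing of their barcodes. Scores were corrected for input abundance and mapped to Kd with protein pairs of known affinity run in the same pool. The assay was run in three technical replicates.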

Each scFv is VH, a 15-residue (Gly4Ser)3 linker, VL, as in the parent Ab-95, and differs from it in the CDRs of the light chain only.
VH: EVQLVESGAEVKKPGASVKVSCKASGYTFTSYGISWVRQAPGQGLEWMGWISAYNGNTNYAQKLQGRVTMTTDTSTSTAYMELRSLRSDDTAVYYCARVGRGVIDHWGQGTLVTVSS
VL: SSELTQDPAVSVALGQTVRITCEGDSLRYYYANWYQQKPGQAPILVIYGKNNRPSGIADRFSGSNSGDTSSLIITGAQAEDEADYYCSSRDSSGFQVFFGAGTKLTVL

Each variant is given by its three light chain CDRs, as the data file delimits them; those of the parent are EGDSLRYYYAN, GKNNRPS, SSRDSSGFQVF. Every variant below is changed at A32 of the VL (sequential numbering). Numbers give log10(Kd / nM), so 0 is 1 nM and 3 is 1 µM. Smaller is tighter. The mean shown is taken over the replicates in which the pair was detected. "ND" means that the variant was in the library but no mating with the target was seen in that replicate; the authors take this as a sign of poor binding, and no number exists. Three control strains display no target. For library AAYL52, 28% of the pairings with them gave a signal, with a median of 3.91 and one signal in twenty below 2.90, so weak values seen in few replicates may be background. Also given: how often the same scFv was detected with the empty control strains. Parent in this assay: reference entry 2.31, copy in this library 2.25.

With EGDSLRYYYMN | GKNRRPS | SSRDSSGFQVI the result was ND, ND, ND (controls 5 of 9). For VGDWLRYYYDN | GKNNRPS | SSRDSSGFQVF, the assay gave 2.45, 2.39, 1.83 (mean 2.22; controls 7 of 9). With EGDSLRYYYWN | GWNNRPS | SSRDSSKFQVF the result was 4.18, ND, ND (controls 0 of 9). Variant EGDSLRYYYRN | GKNNRPS | SSRDSNGFQVE showed 3.33, 4.55, 4.26 (mean 4.05; controls 6 of 9). For EGDSLRYYYVN | GKYNRPS | SSRDSSVFQVF, the assay gave ND, ND, ND (controls 1 of 9). For EGDSLRYEHNN | GKNNRPS | SSRDSSGFQVF, the assay gave 2.46, 2.02, 1.58 (mean 2.02; controls 1 of 9). With EGDSLRFYYSN | GKNNHPS | SSRDSSGFQVF the result was 3.88, ND, ND (controls 1 of 9). Variant EGDSLRYYYIN | GKNNYPQ | SSRDSSGFQVF showed 3.72, 4.99, 2.76 (mean 3.82; controls 2 of 9).

With EGDSLRYYYEN | GKNNRPS | SWRDSSEFQVF the result was 3.55, 5.25, ND (mean 4.40; controls 2 of 9). Variant EGDSLRYYYKN | GKNNRIS | SSRDSSGFQVF gave 2.82, 2.46, ND (mean 2.64; controls 4 of 9). Variant EGDSLRYYYLN | GKINRPS | YSRDSSGFQVF gave ND, 4.52, ND (controls 3 of 9). Variant EGDSLRYYYKN | GKNGRSS | SSRDSSGFQVF showed 2.74, 2.35, 2.71 (mean 2.60; controls 5 of 9). For EGDSLRYYYNN | GKNNRPS | SSRDSSMFPVF, the assay gave 3.50, 3.76, 2.51 (mean 3.26; controls 3 of 9). For EGYSLRYYYCN | SKNNRPS | SSRDSSGFQVF, the assay gave ND, 3.93, ND (controls 6 of 9). For EGDSLRYYYRN | GKNNRPS | SHRESSGFQVF, the assay gave 3.79, 4.40, 2.93 (mean 3.71; controls 3 of 9). With EGDSLRYYYRA | GKNNRPS | SSRDSSGFQVF the result was 2.84, 2.77, 2.69 (mean 2.77; controls 4 of 9).

For EGDSLKYYYCN | GKNNRPS | SSRDSSGYQVF, the assay gave 2.38, 2.15, 2.43 (mean 2.32; controls 3 of 9). Variant EGDRLRYYYNN | GKNNRPS | SSRDSSGFQMF gave 3.04, ND, 3.28 (mean 3.16; controls 1 of 9). For EGDSLRYYYRN | GKNNRRS | SSVDSSGFQVF, the assay gave 5.23, ND, ND (controls 2 of 9). Variant ENDSLRYYYDN | GKNLRPS | SSRDSSGFQVF gave ND, ND, 3.81 (controls 2 of 9). Variant EGDSLRYYYTN | GKNNRPS | SSRDSSGFQVF showed 1.90, 1.82, 1.53 (mean 1.75; controls 5 of 9). Variant EGDSLRYYYMD | GKNNRPS | SSRDSSGFQVF gave ND, ND, ND (controls 1 of 9). Variant EGDSLRYYYDM | FKNNRPS | SSRDSSGFQVF gave 3.75, ND, 4.10 (mean 3.92; controls 3 of 9). For EGDSDRYYYDN | GKNNRNS | SSRDSSGFQVF, the assay gave 3.35, ND, ND (controls 3 of 9).

Variant EGDSLVYKYIN | GKNNRPS | SSRDSSGFQVF showed 2.35, 2.53, 2.09 (mean 2.32; controls 3 of 9). For EGDSLRYYYPN | GKNNRPS | SSRDQSRFQVF, the assay gave 2.46, 2.85, 2.35 (mean 2.55; controls 1 of 9). With IGDSLRYYYDN | GKNNRPS | SSRDSSGFCVF the result was 4.27, ND, 4.46 (mean 4.37; controls 5 of 9). Variant EGDSLRYYERN | GKNNRPS | SSRDSSGFLVF showed 2.64, 2.55, 1.86 (mean 2.35; controls 5 of 9). With EGDSLRYYYSN | SKNNRPS | SSRDSSGFQVN the result was ND, 3.90, ND (controls 2 of 9). Variant EGDSLRYYCGN | GKNNRPS | ASRDSSGFQVF showed 3.16, 3.68, 2.83 (mean 3.23; controls 4 of 9). For EGDSLRYYYEN | GKNNRPS | SSKDSSGFQVF, the assay gave ND, ND, ND (controls 0 of 9).

Excerpt, the final 3 entries:

CDR-L1	CDR-L2	CDR-L3	log10 Kd, replicates	mean log10 Kd (nM)	control signals
EGDSLRYYYSN	SKNNRPS	SSRDSSGFQVN	ND, 3.90, ND	3.90	2/9
EGDSLRYYCGN	GKNNRPS	ASRDSSGFQVF	3.16, 3.68, 2.83	3.23	4/9
EGDSLRYYYEN	GKNNRPS	SSKDSSGFQVF	ND, ND, ND	ND	0/9

Reference: Engelhart et al. 2022, doi:10.1038/s41597-022-01779-4. File: FLAb, binding data.